# Test results: US11344527B2, “Methods and compositions for treating cancer” (Sutter West Bay Hospitals, priority 2007, dated 2022)
# Assays:
# [1] = test system: Id-1; assay: Id-1 protein expression by quantitative Western analysis, MDA-MB231; format: cell-based, human; conditions: FIG. 7C
# Description: Proteins were separated by SDS/PAGE, blotted on Immobilon membrane, and probed with anti-Id-1 and the appropriate secondary antibody. Band intensity values were obtained directly from the blot using AlphaeaseFC software (San Leandro, Calif.) or from film using Image-J (NIH, MD). As a normalization control for loading, blots were stripped and re-probed with mouse alpha-tubulin (Abeam, Cambridge, Mass.).
# The ability of CBD to regulate the expression of key genes that control breast cancer cell aggressiveness and invasiveness was determined A potential candidate protein that could mediate the effects of CBD on both phenotypes was the helix-loop-helix protein Id-1. […] The inhibitory effect of CBD on Id-1 expression occurred at concentrations as low as 100 nM. […] The CBD concentrations effective at inhibiting Id-1 expression correlated with those used to inhibit the proliferative and invasive phenotype of MDA-MB231 cells. Furthermore, the time period needed to observe the down-regulation of Id-1 protein in the presence of CBD correlated with the inhibitory effects of CBD on the aggressiveness and invasiveness of MDA-MB231 cells (FIG. 1, panel D).
# In order to determine the SAR between cannabinoids and the inhibition of Id-1, MDA-MB231 cells were treated for two days with multiple cannabinoid compounds and Id-1 protein levels were assessed.
# [2] = test system: MDA-MB231+Id1 cells; assay: Boyden chamber invasion assay, MDA-MB231 cells ectopically expressing Id-1; conditions: 1.5 μM, two day treatment, ectopic Id-1; FIG. 7
smiles,measurement,setting,value
"C=C(C)[C@@H]1CCC(C)=C[C@H]1c1c(O)cc(CCCCC)cc1O [CBD, cannabidiol]","Id-1 expression, control MDA-MB231 (-Id1) cells",[1]; Western blotting,down-regulation
same,"Id-1 expression, MDA-MB231+Id1 cells",[1]; cells that ectopically expressed Id-1,did not inhibit
same,"cell invasiveness, MDA-MB231+Id1 cells",[2],did not inhibit
